Values of other authors in publication PMC10452847 (Cancers, 2023).

Tested on: FGFR2 fusion/rearrangement-positive intrahepatic cholangiocarcinoma
Details: cited from earlier work

In the case of `C=CC(=O)N1CC[C@H](n2nc(C#Cc3cc(OC)cc(OC)c3)c3c(N)ncnc32)C1` [futibatinib], the ORR is listed as 42%.
